One experiment addresses rat orexin-1 receptor (Rattus norvegicus (Rat), UniProt P56718). Put plainly: FLIPR Ca2+ Flux Assay, orexin-1 receptor. The note with it: CHO cells expressing the rat orexin-1 receptor; agonist 70 pM Ala-6,12 human orexin-A; read-out: hOX1R FLIPR IC50. It is filed as cell-based. The method, then:
In a typical experiment the OX1 and OX2 receptor antagonistic activity of the compounds of the present invention was determined in accordance with the following experimental method. For intracellular calcium measurements, Chinese hamster ovary (CHO) cells expressing the rat orexin-1 receptor or the human orexin-2 receptor, are grown in Iscove's modified DMEM containing 2 mM L-glutamine, […], 1% hypoxanthine-thymidine supplement, 100 U/ml penicillin, 100 μg/ml streptomycin and 10% heat-inactivated fetal calf serum (FCS). The cells are seeded at 20,000 cells/well into Becton-Dickinson black 384-well clear bottom sterile plates coated with poly-D-lysine. All reagents were from GIBCO-Invitrogen Corp. The seeded plates are incubated overnight at 37° C. and 5% CO2. Ala-6,12 human orexin-A as the agonist is prepared as a 1 mM stock solution in 1% bovine serum albumin (BSA) and diluted in assay buffer (HBSS containing 20 mM HEPES, 0.1% BSA and 2.5 mM probenecid, pH7.4) for use in the assay at a final concentration of 70 pM. Test compounds are prepared as 10 mM stock solution in DMSO, then diluted in 384-well plates, first in DMSO, then assay buffer. On the day of the assay, cells are washed 3 times with 100 μl assay buffer and then incubated for 60 min (37° C., 5% CO2) in 60 μl assay buffer containing 1 μM Fluo-4AM ester, 0.02% pluronic acid, and 1% BSA. The dye loading solution is then aspirated and cells are washed 3 times with 100 μl assay buffer. 30 μl of that same buffer is left in each well. Within the Fluorescent Imaging Plate Reader (FLIPR, Molecular Devices), test compounds are added to the plate in a volume of 25 μl, incubated for 5 min and finally 25 μl of agonist is added. Fluorescence is measured for each well at 1 second intervals for 5 minutes and the height of each fluorescence peak is compared to the height of the fluorescence peak induced by 70 pM Ala-6,12 orexin-A with buffer in place of antagonist. […] Alternatively, compound potency can be assessed by a radioligand binding assay (described in Bergman et. al. Bioorg. Med. Chem. Lett. 2008, 18, 1425-1430) in which the inhibition constant (Ki) is determined in membranes prepared from CHO cells expressing either the OX1 or OX2 receptor. The intrinsic orexin receptor antagonist activity of a compound which may be used in the present invention may be determined by these assays.
Background: Calcium assays in cells follow changes in intracellular calcium, usually with a dye or a luminescent sensor.

The chains behind the UniProt entries cited, without tags or fusion partners.
UniProt P56718, whole entry: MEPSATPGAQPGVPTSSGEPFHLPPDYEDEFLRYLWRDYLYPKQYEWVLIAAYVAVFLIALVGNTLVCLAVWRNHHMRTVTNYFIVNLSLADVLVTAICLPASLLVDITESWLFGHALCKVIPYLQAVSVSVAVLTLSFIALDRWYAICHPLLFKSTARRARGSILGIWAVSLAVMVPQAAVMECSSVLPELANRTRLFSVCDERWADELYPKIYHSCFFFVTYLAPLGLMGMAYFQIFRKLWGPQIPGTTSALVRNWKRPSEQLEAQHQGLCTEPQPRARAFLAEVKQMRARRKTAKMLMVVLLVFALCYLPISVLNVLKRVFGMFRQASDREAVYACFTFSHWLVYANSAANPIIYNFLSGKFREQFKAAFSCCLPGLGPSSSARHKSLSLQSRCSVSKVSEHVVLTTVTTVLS
UniProt O43614, whole entry: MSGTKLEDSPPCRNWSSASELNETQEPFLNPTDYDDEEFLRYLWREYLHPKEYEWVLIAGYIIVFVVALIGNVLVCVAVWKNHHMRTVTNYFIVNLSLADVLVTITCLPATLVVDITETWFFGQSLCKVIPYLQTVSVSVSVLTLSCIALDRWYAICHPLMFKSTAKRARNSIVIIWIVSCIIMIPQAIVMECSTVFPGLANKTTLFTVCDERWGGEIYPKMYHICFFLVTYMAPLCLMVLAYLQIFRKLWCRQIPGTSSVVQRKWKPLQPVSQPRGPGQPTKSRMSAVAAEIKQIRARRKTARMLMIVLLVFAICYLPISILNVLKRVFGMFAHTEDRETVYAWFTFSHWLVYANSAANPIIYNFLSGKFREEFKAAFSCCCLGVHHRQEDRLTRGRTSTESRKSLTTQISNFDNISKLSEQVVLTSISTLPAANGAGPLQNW

Experiment [1] addresses T1, human orexin-2 receptor (Homo sapiens (Human), UniProt O43614). Put plainly: radioligand binding assay, orexin-2 receptor. The note with it: membranes prepared from CHO cells expressing the OX2 receptor; read-out: hOX2R BIND hKi. The method, then:
(§1) In a typical experiment the OX1 and OX2 receptor antagonistic activity of the compounds of the present invention was determined in accordance with the following experimental method. For intracellular calcium measurements, Chinese hamster ovary (CHO) cells expressing the rat orexin-1 receptor or the human orexin-2 receptor, are grown in Iscove's modified DMEM containing 2 mM L-glutamine, […], 1% hypoxanthine-thymidine supplement, 100 U/ml penicillin, 100 μg/ml streptomycin and 10% heat-inactivated fetal calf serum (FCS). The cells are seeded at 20,000 cells/well into Becton-Dickinson black 384-well clear bottom sterile plates coated with poly-D-lysine. […] Within the Fluorescent Imaging Plate Reader (FLIPR, Molecular Devices), test compounds are added to the plate in a volume of 25 μl, incubated for 5 min and finally 25 μl of agonist is added. Fluorescence is measured for each well at 1 second intervals for 5 minutes and the height of each fluorescence peak is compared to the height of the fluorescence peak induced by 70 pM Ala-6,12 orexin-A with buffer in place of antagonist. […] Alternatively, compound potency can be assessed by a radioligand binding assay (described in Bergman et. al. Bioorg. Med. Chem. Lett. 2008, 18, 1425-1430) in which the inhibition constant (Ki) is determined in membranes prepared from CHO cells expressing either the OX1 or OX2 receptor. […]

The target in experiment [2] is T1, human orexin-2 receptor. Put plainly: FLIPR Ca2+ Flux Assay, orexin-2 receptor. It is filed as cell-based. The note with it: CHO cells expressing the human orexin-2 receptor; agonist 70 pM Ala-6,12 human orexin-A; read-out: hOX2R FLIPR IC50. The method, then:
as §1

For orientation: IC50 means the concentration at which inhibition is half-maximal.

On to `Cc1c(C#N)ccnc1O[C@@H]1CC[C@@H](C)N(C(=O)c2ccc(Cl)cc2-n2nccn2)C1` [Example 4, 2-{[(3R,6R)-1-{[4-chloro-2-(2H-1,2,3-triazol-2-yl)phenyl]carbonyl}-6-methylpiperidin-3-yl]oxy}-3-methylpyridine-4-carbonitrile], for which, on rat orexin-1 receptor, the IC50 was 885 nM.
As for `COc1ccc(C(=O)N2C[C@H](Oc3nccc(C#N)c3C)CC[C@H]2C)c(-n2nccn2)c1` [Example 7, 2-{[(3R,6R)-1-{[4-methoxy-2-(2H-1,2,3-triazol-2-yl)phenyl]carbonyl}-6-methylpiperidin-3-yl]oxy}-3-methylpyridine-4-carbonitrile], the 50% inhibitory concentration (IC50) at rat orexin-1 receptor worked out at 6120 nM.
Same read-out and setting: as for `Cc1c(C#N)ccnc1O[C@@H]1CC[C@@H](C)N(C(=O)c2cccc(F)c2-n2nccn2)C1` [Example 12, 2-{[(3R,6R)-1-{[3-fluoro-2-(2H-1,2,3-triazol-2-yl)phenyl]carbonyl}-6-methylpiperidin-3-yl]oxy}-3-methylpyridine-4-carbonitrile], the figure is 927 nM; as for `Cc1c(C#N)ccnc1O[C@@H]1CC[C@@H](C)N(C(=O)c2c(F)cccc2-c2nccs2)C1` [Example 18, 2-{[(3R,6R)-1-{[2-fluoro-6-(1,3-thiazol-2-yl)phenyl]carbonyl}-6-methylpiperidin-3-yl]oxy}-3-methylpyridine-4-carbonitrile], 199 nM.
`Cc1c(C#N)ccnc1O[C@@H]1CC[C@@H](C)N(C(=O)c2sncc2-c2ccccc2)C1` [Example 20, 3-methyl-2-({(3R,6R)-6-methyl-1-[(4-phenylisothiazol-5-yl)carbonyl]piperidin-3-yl}oxy)pyridine-4-carbonitrile]: the half-inhibitory concentration (IC50) on rat orexin-1 receptor is above 10000 nM.
In the case of `Cc1c(C#N)ccnc1O[C@@H]1CC[C@@H](C)N(C(=O)c2ccccc2OC(C)C)C1` [Example 21, 3-methyl-2-{[(3R,6R)-6-methyl-1-{[2-(1-methylethoxy)phenyl]carbonyl}piperidin-3-yl]oxy}pyridine-4-carbonitrile], the IC50 at rat orexin-1 receptor was 1960 nM.
Same read-out and setting: the value for `Cc1c(C#N)ccnc1O[C@@H]1CC[C@@H](C)N(C(=O)c2ccncc2-c2ccccc2)C1` [Example 23, 3-methyl-2-({(3R,6R)-6-methyl-1-[(3-phenylpyridin-4-yl)carbonyl]piperidin-3-yl}oxy)pyridine-4-carbonitrile] was 4450 nM; that for `Cc1c(C#N)ccnc1O[C@@H]1CC[C@@H](C)N(C(=O)c2ccccc2-c2ncco2)C1` [Example 27, 3-methyl-2-{[(3R,6R)-6-methyl-1-{[2-(1,3-oxazol-2-yl)phenyl]carbonyl}piperidin-3-yl]oxy}pyridine-4-carbonitrile] was 1030 nM.
Same read-out and setting: the value for `Cc1c(C#N)ccnc1O[C@@H]1CC[C@@H](C)N(C(=O)c2ccccc2-c2cscn2)C1` [Example 33, 3-methyl-2-{[(3R,6R)-6-methyl-1-{[2-(1,3-thiazol-4-yl)phenyl]carbonyl}piperidin-3-yl]oxy}pyridine-4-carbonitrile] was 514 nM; that for `Cc1c(C#N)ccnc1O[C@@H]1CC[C@@H](C)N(C(=O)c2ccccc2-c2nccs2)C1` [Example 44, 3-methyl-2-{[(3R,6R)-6-methyl-1-{[2-(1,3-thiazol-2-yl)phenyl]carbonyl}piperidin-3-yl]oxy}pyridine-4-carbonitrile] was 361 nM; that for `Cc1c(C#N)ccnc1O[C@@H]1CC[C@@H](C)N(C(=O)c2nscc2-c2ccccc2)C1` [Example 50] was 2520 nM.
On the same count and under the same terms, the value for `Cc1c(C#N)ccnc1O[C@@H]1CC[C@@H](C)N(C(=O)c2nscc2-n2nccn2)C1` [Example 55, 3-methyl-2-{[(3R,6R)-6-methyl-1-{[4-(2H-1,2,3-triazol-2-yl)isothiazol-3-yl]carbonyl}piperidin-3-yl]oxy}pyridine-4-carbonitrile] was above 10000 nM; that for `Cc1c(C#N)ccnc1O[C@@H]1CC[C@@H](C)N(C(=O)c2ccccc2OC(F)(F)F)C1` [Example 62, 3-methyl-2-{[(3R,6R)-6-methyl-1-{[2-(trifluoromethoxy)phenyl]carbonyl}piperidin-3-yl]oxy}pyridine-4-carbonitrile] was 1970 nM.
For `Cc1c(C#N)ccnc1O[C@@H]1CC[C@@H](C)N(C(=O)C2=C(c3ccccn3)CCC2)C1` [Example 63, 3-methyl-2-({(3R,6R)-6-methyl-1-[(2-pyridin-2-ylcyclopent-1-en-1-yl)carbonyl]piperidin-3-yl}oxy)pyridine-4-carbonitrile], the IC50 on rat orexin-1 receptor stood at 9750 nM.
Same read-out and setting: the value for `COc1ccc(C(=O)N2C[C@H](Oc3nccc(C#N)c3C)CC[C@H]2C)c(C2CCC2)n1` [Example 66] was 9850 nM; that for `Cc1c(C#N)ccnc1O[C@@H]1CC[C@@H](C)N(C(=O)c2cc(F)ccc2-n2nccn2)C1` [Example 69, 2-{[(3R,6R)-1-{[5-fluoro-2-(2H-1,2,3-triazol-2-yl)phenyl]carbonyl}-6-methylpiperidin-3-yl]oxy}-3-methylpyridine-4-carbonitrile] was 2060 nM; that for `CSc1ccc(C(=O)N2C[C@H](Oc3nccc(C#N)c3C)CC[C@H]2C)c(-n2nccn2)n1` [Example 86, 3-methyl-2-{[(3R,6R)-6-methyl-1-{[6-(methylsulfanyl)-2-(2H-1,2,3-triazol-2-yl)pyridin-3-yl]carbonyl}-piperidin-3-yl]oxy}pyridine-4-carbonitrile] was 10000 nM.
Regarding `C[C@@H]1CC[C@@H](Oc2nccc(C#N)c2C2CC2)CN1C(=O)c1ccccc1-n1nccn1` [Example 92, 3-cyclopropyl-2-{[(3R,6R)-6-methyl-1-{[2-(2H-1,2,3-triazol-2-yl)phenyl]carbonyl}piperidin-3-yl]oxy}pyridine-4-carbonitrile], at human orexin-2 receptor [1], the Ki turned out to be 0.2 nM. The 50% inhibitory concentration (IC50) at human orexin-2 receptor [2] is 12 nM.
For `CCc1c(C#N)ccnc1O[C@@H]1CC[C@@H](C)N(C(=O)c2ccccc2-n2nccn2)C1` [Example 93, 3-ethyl-2-{[(3R,6R)-6-methyl-1-{[2-(2H-1,2,3-triazol-2-yl)phenyl]carbonyl}piperidin-3-yl]oxy}pyridine-4-carbonitrile], the IC50 at rat orexin-1 receptor turned out to be 178 nM.
As for `COc1c(C#N)ccnc1O[C@@H]1CC[C@@H](C)N(C(=O)c2ccc(F)cc2-n2nccn2)C1` [Example 98, 2-{[(3R,6R)-1-{[4-fluoro-2-(2H-1,2,3-triazol-2-yl)phenyl]carbonyl}-6-methylpiperidin-3-yl]oxy}-3-methoxypyridine-4-carbonitrile], the IC50 at rat orexin-1 receptor was 3930 nM.

These data come from patent publication US9546152B2 (MERCK SHARP & DOHME CORP., priority 2012, dated 2017).
